Molecular target: T1, proton-coupled peptide transporter (Oryctolagus cuniculus, UniProt P36836)
T1 construct: Xenopus laevis oocytes were injected with cRNA coding the proton-coupled peptide transporter; expressed in transfected cells; host or cells: Xenopus laevis oocytes injected with cRNA transcribed in vitro from the cloned cDNA
T1 sequence (P36836 1-707): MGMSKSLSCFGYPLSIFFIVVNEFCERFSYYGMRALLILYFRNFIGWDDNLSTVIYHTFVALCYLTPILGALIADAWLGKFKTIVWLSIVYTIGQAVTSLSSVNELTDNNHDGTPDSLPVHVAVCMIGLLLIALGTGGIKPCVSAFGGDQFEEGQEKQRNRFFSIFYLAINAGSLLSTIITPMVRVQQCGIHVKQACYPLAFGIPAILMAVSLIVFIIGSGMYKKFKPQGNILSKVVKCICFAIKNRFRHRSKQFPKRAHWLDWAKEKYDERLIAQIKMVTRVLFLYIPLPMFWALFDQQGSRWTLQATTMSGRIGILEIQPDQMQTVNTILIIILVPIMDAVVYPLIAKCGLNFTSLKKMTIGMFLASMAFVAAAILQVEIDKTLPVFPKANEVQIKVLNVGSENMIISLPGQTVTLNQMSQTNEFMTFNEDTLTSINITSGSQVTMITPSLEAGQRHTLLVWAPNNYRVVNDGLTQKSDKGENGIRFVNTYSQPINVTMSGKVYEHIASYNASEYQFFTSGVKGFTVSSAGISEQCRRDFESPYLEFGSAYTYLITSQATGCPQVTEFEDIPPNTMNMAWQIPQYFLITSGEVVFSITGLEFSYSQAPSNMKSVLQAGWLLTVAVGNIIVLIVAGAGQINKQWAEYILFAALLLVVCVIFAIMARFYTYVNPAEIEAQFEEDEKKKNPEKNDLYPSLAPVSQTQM
Test: Two-electrode voltage clamp of Xenopus laevis oocytes injected with transporter cRNA: substrate-evoked inward currents and Km
Format: cell-based, rabbit
Conditions: current amplitudes at altered substrate concentrations, pH 5.5, cRNA-injected oocytes
Text: These oocytes were subjected to two electrode voltages clamp analysis (Gene Clamp 500, Axon Instruments, California) in the manner described in Kanaisy & Hediger, M. A. Nature 360, 467-71 (1992).
FIG. 9 depicts electrophysiological measurements of transformed cocytes as a percent of glycyl-sarcosine evoked current. Data representing glycyl-sarcosine are depicted as a solid black bar. Data representing peptide are depicted with dotted bars. Data representing antibiotics are depicted with hatched bars.
By altering peptide concentrations, current amplitudes for different compositions, Km values were determined.

In the case of Diglycine (GG) [dipeptide substrate], the Km is reported as 2500 µM.
